In EP3795574A1, “SYNTHESIS AND USAGE OF 1,2-DIAMINODIAMANTANE PLATINUM(II) COMPLEXES” (Justus-Liebig-Universität Gießen, priority 2019, dated 2021):

How the values were obtained:
[1] = Solubility of the complexes in solvents; details: most common solvents including N,N-dimethylformamide (DMF)
[2] = system: human ovarian cancer cell line A2780; assay: Cellular viability assay (resazurin / Alamar Blue, 72 h); details: A2780, 72 h at 37 °C, compared to cisplatin; result in words

## cis-[1,2-diaminodiamantane]oxalatoplatinum(II)
[1]
  solubility: insoluble

## cis-[1,2-diaminodiamantane]dichlorideplatinum(II)
[2]
  cytotoxicity: superior cytotoxicity compared to cisplatin
